Literature values, collected in US6335316B1, “Method for administering acylated insulin” (Eli Lilly and Company, priority 1997, dated 2002).

insulin
bioavailability relative to subcutaneous (1 μm MMAD insulin aerosols): 100% | bioavailability relative to subcutaneous administration (inhalation of 4 μm MMAD insulin aerosols): 38%
